In ChEMBL document CHEMBL2385026, “Identification of C-2 hydroxyethyl imidazopyrrolopyridines as potent JAK1 inhibitors with favorable physicochemical properties and high selectivity over JAK2” (J Med Chem, 2013) one finds Ki and EC50 data, which are given here for one compound.

The chains behind the UniProt entries cited, without tags or fusion partners. Where a name states a change or a piece, a line headed by the entry shows the natural chain unless it says otherwise.
UniProt P29597: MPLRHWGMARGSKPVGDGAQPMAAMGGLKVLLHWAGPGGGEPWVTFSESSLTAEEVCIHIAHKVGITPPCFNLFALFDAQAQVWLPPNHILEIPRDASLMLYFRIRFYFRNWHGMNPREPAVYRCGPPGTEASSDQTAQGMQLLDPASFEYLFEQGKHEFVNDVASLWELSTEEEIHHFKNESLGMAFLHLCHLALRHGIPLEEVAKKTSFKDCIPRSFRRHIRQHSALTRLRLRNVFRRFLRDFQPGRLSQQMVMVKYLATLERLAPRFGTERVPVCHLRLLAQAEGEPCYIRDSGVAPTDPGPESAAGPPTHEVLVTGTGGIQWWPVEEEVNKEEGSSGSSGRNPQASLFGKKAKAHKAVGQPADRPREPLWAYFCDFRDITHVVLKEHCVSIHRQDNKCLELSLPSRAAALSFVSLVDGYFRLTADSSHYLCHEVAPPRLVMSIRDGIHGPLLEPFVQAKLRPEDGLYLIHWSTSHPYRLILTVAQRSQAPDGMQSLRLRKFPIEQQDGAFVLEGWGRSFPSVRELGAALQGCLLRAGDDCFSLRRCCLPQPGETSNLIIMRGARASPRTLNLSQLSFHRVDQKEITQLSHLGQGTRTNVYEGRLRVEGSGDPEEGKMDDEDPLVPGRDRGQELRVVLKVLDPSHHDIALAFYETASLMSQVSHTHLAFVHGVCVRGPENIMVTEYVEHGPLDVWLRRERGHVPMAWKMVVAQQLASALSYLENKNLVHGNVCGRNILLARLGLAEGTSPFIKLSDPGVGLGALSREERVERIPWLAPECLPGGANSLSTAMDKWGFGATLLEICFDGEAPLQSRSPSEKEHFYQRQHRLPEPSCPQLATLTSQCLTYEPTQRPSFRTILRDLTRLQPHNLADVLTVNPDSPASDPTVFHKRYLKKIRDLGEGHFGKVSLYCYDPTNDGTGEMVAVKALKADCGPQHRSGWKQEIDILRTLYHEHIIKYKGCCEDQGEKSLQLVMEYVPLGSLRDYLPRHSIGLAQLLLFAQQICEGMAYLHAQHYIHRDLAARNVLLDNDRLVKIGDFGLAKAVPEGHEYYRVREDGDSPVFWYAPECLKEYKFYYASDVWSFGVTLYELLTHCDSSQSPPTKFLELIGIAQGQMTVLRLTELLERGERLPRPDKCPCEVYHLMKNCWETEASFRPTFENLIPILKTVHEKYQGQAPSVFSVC

The target of assay [1] is T1, Non-receptor tyrosine-protein kinase TYK2 (Homo sapiens, UniProt P29597).
In assay [2] the target is T1, Non-receptor tyrosine-protein kinase TYK2. This is another data set of the same source.

As a reminder, the Ki is a measure of affinity in units of concentration, obtained from inhibition or displacement. A higher Ki goes with weaker binding. As usually defined, the EC50 is the concentration that produces a half-maximal response. Read a low EC50 as higher potency in that assay.

Turning to `C[C@@H](O)c1nc2cnc3[nH]ccc3c2n1[C@H]1CC[C@H](CCC#N)CC1`, the inhibition constant (Ki) in assay [1] came out at 1.7 nM. In addition, in assay [2], the EC50 was 980 nM.
